This assay deals with Coagulation factor X (Homo sapiens, UniProt P00742). As to the kind of experiment: Tested in vitro for the inhibitory activity against Coagulation factor Xa.

The chains behind the UniProt entries cited, without tags or fusion partners. Residues count along the entry.
UniProt P00742, 41-179 limits assumed: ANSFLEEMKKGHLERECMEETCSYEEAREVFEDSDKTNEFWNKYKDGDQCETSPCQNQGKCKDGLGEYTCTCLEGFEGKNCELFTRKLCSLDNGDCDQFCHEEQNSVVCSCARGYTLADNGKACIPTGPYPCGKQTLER
UniProt P00742, 235-488 limits assumed: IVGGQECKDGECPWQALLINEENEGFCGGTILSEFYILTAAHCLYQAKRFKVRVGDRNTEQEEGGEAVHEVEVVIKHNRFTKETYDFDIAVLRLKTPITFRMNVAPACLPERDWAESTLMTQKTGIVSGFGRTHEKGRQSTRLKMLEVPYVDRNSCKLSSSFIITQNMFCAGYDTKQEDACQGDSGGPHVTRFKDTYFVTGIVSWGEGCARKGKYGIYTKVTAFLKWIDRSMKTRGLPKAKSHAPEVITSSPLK

The text below walks through data of ChEMBL document CHEMBL1135152, “Design, synthesis, and SAR of monobenzamidines and aminoisoquinolines as factor Xa inhibitors” (Bioorg Med Chem Lett, 2002).

As usually defined, the IC50 is the point on the concentration scale where inhibition reaches its midpoint.

Regarding `CS(=O)(=O)Nc1ccc(C(=O)Nc2ccc(-c3ccccc3S(N)(=O)=O)cc2)c(Oc2cccc(C(=N)N)c2)c1`, the IC50 was found to be 31 nM.
